{"source": "patent US9062289B2", "about": "“Differentiation of primate pluripotent stem cells to cardiomyocyte-lineage cells” (Asterias Biotherapeutics, Inc., priority 2005, dated 2015)", "system": "H7 hES cells", "test": "Differentiation of H7 hES cells to cardiomyocyte-lineage cells with BMP-2 or BMP-4 (αMHC expression, FIG. 4)", "format": "cell-based, human", "settings": "BMP at 25, 50 and 100 ng/ml after Activin A, 24-well plate, triplicate; control without Activin, BMP or IGF-I", "procedure": "Growth factor treatment: After 6 days of growth as described above, the cells' media was removed and replaced with RPMI plus 1× B27 supplement (Invitrogen) plus 50 ng/ml Activin A (R&D Systems). After 18-24 hours, the medium was removed and replaced with RPMI plus 1× B27 supplement plus 50 ng/ml BMP-4 (R&D Systems). After a total of 4 days in BMP-4-containing medium, the medium was removed and replaced with RPMI plus 1× B27 supplement plus 50 ng/ml IGF-1 (R&D Systems) without the Activin or BMP. The cultures were re-fed every 2-3 days by removing spent medium and replacing it with fresh RPMI plus 1× B27 supplement plus 50 ng/ml IGF-1 without the Activin or BMP.\nA differentiation of H7 hES cells was performed as in Example 1, except that the differentiation was performed in a 24-well plate instead of a 6-well plate and the volume for the factors was 1 ml per well. In addition, BMP-2 and BMP-4 were used at concentrations of 25 ng/ml, 50 ng/ml, and 100 ng/ml. Each concentration was done in triplicate.", "data": [{"molecule": "BMP-2: Bone Morphogenetic Protein, a polypeptide growth factor of the TGF-β superfamily (protein, UniProt P12643 283-396, looked up) Bone morphogenetic protein 2: QAKHKQRKRLKSSCKRHPLYVDFSDVGWNDWIVAPPGYHAFYCHGECPFPLADHLNSTNHAIVQTLVNSVNSKIPKACCVPTELSAISMLYLDENEKVVLKNYQDMVVEGCGCR", "values": [{"measurement": "effectiveness in the differentiation protocol (expression of αMHC as relative fold of the control)", "value": "effective"}]}]}
